Protein sequences, listed by entry. Tags and fused reporters are not part of them.
ATP-dependent Clp protease proteolytic subunit (Bacillus subtilis (strain 168)), P80244, UniProt P80244, whole entry, looked up: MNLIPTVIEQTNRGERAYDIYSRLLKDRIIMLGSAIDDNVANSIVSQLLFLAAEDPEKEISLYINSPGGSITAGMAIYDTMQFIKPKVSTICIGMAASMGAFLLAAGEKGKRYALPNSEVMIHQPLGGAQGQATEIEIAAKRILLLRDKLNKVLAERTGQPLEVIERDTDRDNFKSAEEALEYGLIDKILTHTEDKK

# Nrf2 inh: Nrf2 pathway inhibition. A549 ARE-Fluc reporter, luciferase luminescence, 18-24 h. Potency, µM (series often up to 46 µM), for the others: at the top dose activity change, negative = inhibition, actives largely listed as inhibitors. 360,000 compounds, 2.1% hits; further: potency means the concentration at half of the fitted maximal effect; on the % scale 0 is the no-effect control and ±100 the full control effect; nearly all actives have a fitted effect of over 60% in size
#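 Nrf2 activity is the BugLite luminescence, read 15 min after reagent at room temperature, following CellTiter-Fluor cytotoxicity readout (30 min, 37C). Compound titrations were applied for 18-24 h to 5000 A549 ARE_Fluc cells/well in 5% FBS OPTI-MEM.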
# miR-21 reporter: raises the signal of a miR-21 reporter | HeLa miR-21 FLuc reporter, luciferase, 48 h | Potency, µM (highest dose often 38.3 µM), inactives show at the highest dose reporter change, positive = more light | 340,000 tested, under 10 active | AID 2288; active = well fitted rising curve with a large enough effect; inconclusive = small, poorly fitted or top-dose-only effect; inactive = no such curve, though single readings can be large or run the other way;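 note: % of control where 0% means no effect; miR-21 action dims this reporter so a rising signal means less miR-21 action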
#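 HeLa miR-21-FLuc reporter line, endogenous miR-21; 2000 cells/well in DMEM/10% FBS; compound titration up to ~40uM final, 48 h, 37 degree Celsius; luciferase detection reagent, 15 min lysis, CCD luminescence.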
# IL2 activator: IL-2 activation | IL-2 activation reporter assay, cell-based qHTS; stimulated with anti-CD3/CD4/CD28 beads; in transgenic mouse T cells | activation, % (series mostly up to about 46 µM) | 360,000 compounds, 0.065% hits; in the data active means activation above about 50%; inconclusive means mostly about 30% to 49%; further: 0% is about no effect
#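 Unstimulated transgenic mouse T cells; 60-min compound exposure; bead-based TCR/CD4/CD28 stimulation; 18 h culture, 37 degrees C; dual fluorescence (EGFP, DsRed) plate cytometry.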
# ClpP mod: qHTS Assay for Activators of ClpP. ATP-dependent Clp protease proteolytic subunit (Bacillus subtilis (strain 168)), P80244. purified B. subtilis ClpP, FRET peptide cleavage, 20 min. Potency, µM (doses to about 57.5 µM), for inactives: at the highest dose activity change, negative = active. 340,000 compounds, 1.9% hits. AID 651965, 2013; active means well fitted falling curve with a large enough effect; inconclusive means small, poorly fitted or top-dose-only effect; inactive means no such curve, though single readings can be large or run the other way; further: potency means the concentration at half of the fitted maximal effect; the source files actives as falling curves though it sought activators and does not explain the sign; nearly all actives have a fitted effect of over 65% in size
#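 Buffer: 100 mM Tris/HCl pH8, 100 mM KCl, 0.05% low protease BSA, 2.5% glycerol, 0.01% Tween-20. ClpP 10 microg/mL final; 20 min RT; delta FRET normalized to ADEP and DMSO controls.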
# A549 tox: kills or reduces viability of A549 cells in Nrf2 counter-screen; Potency, µM (series often up to 46 µM), inactives show top-dose activity change, negative = cytotoxicity, usual class: inhibitors; AID 504648; 390,000 compounds, 0.16% hits; A549 ARE-Fluc cells, CellTiter-Fluor viability, 18-24 h; further: potency means the concentration at half of the fitted maximal effect; on the % scale 0 is the no-effect control and ±100 the full control effect
#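 A549 ARE_Fluc cells in 5% FBS OPTI-MEM were exposed to compounds in concentration-response for 18-24 h at 37 deg C. Viability was read by CellTiter-Fluor fluorescence (Ex 405/Em 525) after 30 min, before the luciferase read.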
# Nrf2 ARE act: activates Nrf2 signaling | 410,000 compounds, 0.31% hits | AREc32 ARE-luciferase reporter (MCF7-derived line), luminescence, 24 h | Potency, µM (titrated, usually from 46.1 µM), without a hit: at the top dose activation, most hits filed as activators | AID 624171; further: potency means the concentration at half of the fitted maximal effect; % of control where 0% means no effect; nearly all actives have a fitted effect of over 65% in size
#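 Luciferase luminescence (Steady-Glo, 30 min at room temperature) served as the read-out of ARE activation in AREc32 cells treated with compounds for 24 hr at 37 deg C.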
# Starred values were filed as active, the others as inactive; u = inconclusive; x = not tested or not shown; [ ] = dose if it differs, or a comment. A selection: hits, their analogues and other compounds. The true share with any hit is near 3.7%. Unless noted, the call rests on the fitted dose curve; in most records, active means well fitted curve in the direction sought with a large enough effect; inconclusive means small, poorly fitted or top-dose-only effect, or another doubt; inactive means no such curve, though single readings can be large; an effect the other way counts as inactive or inconclusive.
# The line under a structure holds: Nrf2 inh | miR-21 reporter | IL2 activator | ClpP mod | A549 tox | Nrf2 ARE act
> COc1ccc2[nH]c(C(O)C(O)c3nc4c(OC)c(OC)ccc4[nH]3)nc2c1OC (stereo unspecified)
→ x | x | x | -4% | x | x
> CCN(c1ccccc1)S(=O)(=O)c1nnc(NC(=O)COc2ccccc2F)s1
→ u | -46% | x | -1% | 1% | 0%
> O=c1cc(C(F)(F)F)[nH]c2c(C(F)(F)F)cccc12
→ 18µM* | 29% | -1 | 4% | u | 0%
> O=c1cc(C(F)(F)F)[nH]c2ccc(OC(F)(F)F)cc12
→ u | u | -3 | x | u | 3%
> COc1ccccc1CCNC(=O)Cc1c(C)c2ccc(O)cc2oc1=O
→ -17% | -7% | x | 4% | 10% | 0%
> CC1CCCN(C(=O)CCc2nnc(-c3ccc4c(c3)OCO4)o2)C1 (stereo unspecified)
→ 3% | -47% | 2 | u | -12% | 2%
> CCCOC1CCCN(C(=O)CCc2nnc(-c3ccc4c(c3)OCO4)o2)C1 (stereo unspecified)
→ u | -50% | -2 | 20µM* | -5% | 3%
> CCOc1cccc2sc(=NC(=O)c3ccco3)n(CC(=O)OC)c12
→ -4% | 20% | -3 | 4% | -8% | 15%
> C#CCn1c(=NC(=O)c2ccco2)sc2cccc(Cl)c21
→ 5% | -16% | -3 | x | -3% | 4µM*
> Nc1nonc1-n1nnc(C(=O)N/N=C/c2ccccc2)c1CN1CCc2ccccc21
→ 10% | -7% | 0 | x | 1% | 0%
> C/C(=N\NC(=O)c1nnn(-c2nonc2N)c1CN1CCc2ccccc21)c1ccccc1O
→ 12µM* | -1% | -1 | 1% | -14% | -1%
> Cc1ccc(C)c(N2CCN(C(=O)C3CCCN(c4ncnc5c4nc4n5CCCCC4)C3)CC2)c1 (stereo unspecified)
→ 15µM* | 27% | -2 | 0% | -18% | -1%
> Cc1cccc(N2CCN(C(=O)C3CCN(c4ncnc5c4nc4n5CCCCC4)CC3)CC2)c1C
→ 21µM* | u | -1 | -1% | u | 0%
> Cc1ccc(NC(=O)C2CCN(c3ncnc4c3nc3n4CCCCC3)CC2)cc1Cl
→ 13µM* | -1% | -4 | -2% | u | 0%
> O=C(C1CCN(c2ncnc3c2nc2n3CCCCC2)CC1)N1CCN(c2ccccc2F)CC1
→ u | 28% | 0 | 2% | 1% | 0%
> Cc1ccc(NC(=O)C2CCCN(c3ncnc4c3nc3n4CCCCC3)C2)cc1Cl (stereo unspecified)
→ -14% | 4% | -4 | 0% | -6% | -1%
> Cc1cc(N2CCC(C(=O)N3CCN(c4cccc(C)c4C)CC3)CC2)n2ncnc2n1
→ 15µM* | 0% | -1 | 0% | 11%[1.84 µM] | 0%
> COc1ccc(Cc2nc3ccc(C(=O)NCc4cc(Br)ccc4OC)cc3o2)cc1
→ x | -5% | x | -2% | 3% | 2%
> COc1ccccc1CNS(=O)(=O)c1ccc2c(c1)CC(C)N2C(C)=O (stereo unspecified)
→ -15% | 3% | x | -3% | 15% | 3%
> Cc1cccc(N2CCN(C(=O)C3CCN(c4ncnc5c4nc4n5CCCCC4)CC3)CC2C)c1 (stereo unspecified)
→ 18µM* | u | -5 | 1% | u | -3%
> CCc1cccc(NC(=O)COC(=O)c2cn(CC)c3nc(C)ccc3c2=O)c1
→ 18% | 0% | x | -1% | 1% | -1%
> CCOc1ccc(N(CC(=O)N2CCC(Cc3ccccc3)CC2)S(C)(=O)=O)cc1
→ 26µM* | -4% | 0 | x | -7% | 0%
> Cc1ccc(S(=O)(=O)N2CCN(C(=O)COC(=O)C3CCC3)CC2)c(C)c1
→ -5% | x | -2 | 25µM* | 2% | 0%
> CCC(=O)Nc1ccc(NC(=O)CSc2nc3cc4c(cc3cc2C)CCC4)cc1
→ 23µM* | 12% | 0 | -2% | u | -1%
> Cc1ccccc1NC(=O)CSc1nc2cc3c(cc2cc1C)CCC3
→ -22% | 11% | -3 | 1% | u | 0%
> O=S1(=O)C=C(N2CCOCC2)c2ccccc21
→ 5% | -3% | -3 | -3% | -5% | 13µM*
> COc1cccc(NC(=O)c2sc(NC(=O)c3ccncc3)nc2C)c1
→ 12µM* | 6% | -1 | 0% | 0% | 0%
> COc1cccc(NC(=O)c2ccncc2)c1
→ 8% | -19% | -1 | 1% | -10% | 0%
> COc1ccc(CNC(=O)Cn2nnc(-c3ccc(C(F)(F)F)cc3)n2)cc1
→ x | -7% | x | 0% | 5% | -1%
> O=C(NCc1ccc(Cl)cc1)c1ccc(OCC2CCCO2)cc1 (stereo unspecified)
→ 16% | -20% | -3 | -1% | 2% | 2%

# Compound profiles, as listed above. Order of screens: Nrf2 inh | miR-21 reporter | IL2 activator | ClpP mod | A549 tox | Nrf2 ARE act
# `COc1ccc2[nH]c(C(O)C(O)c3nc4c(OC)c(OC)ccc4[nH]3)nc2c1OC` (stereo unspecified) as listed: x | x | x | -4% | x | x
# `COc1ccc(Cc2nc3ccc(C(=O)NCc4cc(Br)ccc4OC)cc3o2)cc1` as listed: x | -5% | x | -2% | 3% | 2%
# `COc1cccc(NC(=O)c2ccncc2)c1` as listed: 8% | -19% | -1 | 1% | -10% | 0%
# `CCCOC1CCCN(C(=O)CCc2nnc(-c3ccc4c(c3)OCO4)o2)C1` (stereo unspecified) as listed: u | -50% | -2 | 20µM* | -5% | 3%
# `COc1ccc(CNC(=O)Cn2nnc(-c3ccc(C(F)(F)F)cc3)n2)cc1` as listed: x | -7% | x | 0% | 5% | -1%

# Later entries
# The line under a structure holds: Nrf2 inh | miR-21 reporter | IL2 activator | ClpP mod | A549 tox | Nrf2 ARE act
> Cc1ccccc1NC(=O)c1ccc(NC(=O)C2CCCO2)cc1 (stereo unspecified)
→ -7% | -11% | 2 | 16µM* | -9% | -1%
> O=C(Nc1ccc(Cl)cc1)c1ccc(OCC2CCCO2)cc1 (stereo unspecified)
→ u | -24% | -3 | 14µM* | -11% | 3%
> O=C(Nc1ccc(C(F)(F)F)cc1)c1ccc(NC(=O)C2CCCO2)cc1 (stereo unspecified)
→ 21µM* | 13% | 0 | x | 2% | 1%
> O=C(Nc1ccc2nc(SCC(=O)N3CCCc4ccccc43)sc2c1)c1ccccc1
→ 12µM* | 26% | x | 14µM* | -15% | 1%
> O=C(Nc1ccc2nc(SCC(=O)N3CCc4ccccc43)sc2c1)c1ccccc1
→ 14% | 5% | x | 8.9µM* | 0% | 4%
> CCOc1ccc(C(=O)Nc2ccc3nc(SCC(=O)N4CCc5ccccc54)sc3c2)cc1
→ 6% | 4% | x | u | 5% | 3%
> Cc1ccc(C(=O)Nc2ccc3nc(SCC(=O)N4CCCc5ccccc54)sc3c2)cc1
→ u | 8% | x | 20µM* | -16% | 1%
> CC(=O)c1ccc(-c2csc3ncnc(Sc4nnnn4C)c23)cc1
→ u | x | x | x | -2% | x
> CCOc1ccc(C2C(C(N)=O)=C(C)Nc3nc(-c4ccc(OC)cc4)nn32)cc1 (stereo unspecified)
→ -3% | -8% | x | 32% | -3% | 1%
> CC(NC(=O)c1ccc(Cl)s1)C1CCCO1 (stereo unspecified)
→ x | -5% | -1 | -9% | -3% | 0%
> CC(NC(=O)c1cccs1)C1CCCO1 (stereo unspecified)
→ 3% | 2% | 0 | 28µM* | -6% | 0%

# Screens: PubChem BioAssay, National Center for Advancing Translational Sciences (NCATS)
